Measured values from EP4775209A1 (Ascentawits Pharmaceuticals, Ltd., priority 2023, dated 2025).

Assay: Toxicokinetics (QD×5/21 Days) in monkeys
Conditions: AST-3424 0.1, 0.2, 0.4/0.3 mg/kg 30-minute i.v. infusion QD×5; metabolite time after the start of administration; approximate

## C[C@H](OP(=O)(N1CC1)N1CC1)c1ccc([N+](=O)[O-])c(Oc2cccc(C(=O)N(C)C)c2)c1 [AST-3424]
  Tmax, time to peak concentration: immediately after the end of administration
